Test results from patent US5114925A, “Renin inhibitors containing the 2-[[(2R,3S)-3-amino-4-cyclohexyl-2-hydroxy-1-butyl]thio)alkanoyl moiety and the corresponding sulfoxide and sulfone derivatives” (Merck & Co., Inc., priority 1991, dated 1992).

The chains behind the UniProt entries cited, without tags or fusion partners. Residues count along the entry.
UniProt P00797, 67-406: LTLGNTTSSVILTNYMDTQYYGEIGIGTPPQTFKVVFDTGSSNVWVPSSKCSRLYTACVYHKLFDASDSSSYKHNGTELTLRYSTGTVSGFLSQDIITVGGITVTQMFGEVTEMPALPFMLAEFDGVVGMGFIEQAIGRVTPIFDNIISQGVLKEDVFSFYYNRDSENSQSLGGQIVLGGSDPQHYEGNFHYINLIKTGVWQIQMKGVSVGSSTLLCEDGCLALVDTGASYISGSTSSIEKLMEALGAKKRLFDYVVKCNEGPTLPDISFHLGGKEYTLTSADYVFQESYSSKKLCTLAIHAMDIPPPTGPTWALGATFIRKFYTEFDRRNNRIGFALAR

Biological target: T1, human renin (Homo sapiens, UniProt P00797)
T1 construct: added to human plasma (75 μl) containing EDTA; from tissue; host or cells: human plasma
Experiment: plasma renin assay (radioimmunoassay of angiotensin-I released in human plasma)
Type: biochemical
Details: human renin and human renin substrate in human plasma, 37° C., pH 6.9, angiotensin-I by radioimmunoassay; read-out: IC50 (the molar concentration required to cause 50% inhibition), renin inhibitory activity
Description: It is based on the measurement, by radiommunoassay, of Angiotensin-I released from human renin substrate by human renin in human plasma. The inhibitor is dissolved in 0.01N HCl (10 μl) and added to human plasma (75 μl) containing EDTA, and angiotensin-I antibody ([…]) in 3M-Tris.HCl buffer (pH 6.9).
Free and bound ligand are separated by the addition of dextran-coated charcoal, and the amount of bound radio-ligand determined in a gamma counter.

| SMILES | IC50 [nM] |
| --- | --- |
| CCOC(=O)[C@@H](CC(C)C)SC[C@H](O)[C@H](CC1CCCCC1)NC(=O)[C@H](Cc1c[nH]cn1)NC(=O)[C@H](Cc1ccccc1)NC(=O)OC(C)(C)C [ethyl (2 -- R)-2-[X-thio]-4-methylpentanoate] | 288 |
| CCOC(=O)[C@H](CC(C)C)SC[C@H](O)[C@H](CC1CCCCC1)NC(=O)[C@H](Cc1cnc[nH]1)NC(=O)[C@H](Cc1ccccc1)NC(=O)OC(C)(C)C [Ethyl (2S)-2-[[(2R,3S)-3-(Boc-L-phenylalanyl-L-histidylamino)-4-cyclohexyl-2-hydroxy-1-butyl]-thio]-4-methylpentanoate] | 305 |
